{"sequences": {"note": "Sequences of proteins named here, by UniProt entry; tags and fusion partners are left off. Residues count along the entry.", "UniProt Q92793, 1084-1701 limits assumed": "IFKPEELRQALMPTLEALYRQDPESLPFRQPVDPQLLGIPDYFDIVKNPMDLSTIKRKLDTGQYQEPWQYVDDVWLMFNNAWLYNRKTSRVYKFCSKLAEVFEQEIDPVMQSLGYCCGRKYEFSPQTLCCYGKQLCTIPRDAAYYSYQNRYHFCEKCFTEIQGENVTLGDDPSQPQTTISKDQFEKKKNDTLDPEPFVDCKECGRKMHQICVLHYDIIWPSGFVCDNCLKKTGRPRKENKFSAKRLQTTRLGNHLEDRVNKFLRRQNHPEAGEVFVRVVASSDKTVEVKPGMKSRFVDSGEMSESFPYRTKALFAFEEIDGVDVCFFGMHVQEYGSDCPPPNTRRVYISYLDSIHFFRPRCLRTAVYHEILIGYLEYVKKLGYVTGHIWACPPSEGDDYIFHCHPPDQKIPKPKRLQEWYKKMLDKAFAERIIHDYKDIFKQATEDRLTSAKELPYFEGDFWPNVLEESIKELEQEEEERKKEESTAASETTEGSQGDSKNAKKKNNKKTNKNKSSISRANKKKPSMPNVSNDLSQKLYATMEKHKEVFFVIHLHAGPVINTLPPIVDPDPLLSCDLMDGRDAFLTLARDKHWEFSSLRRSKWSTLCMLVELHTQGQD", "UniProt Q09472, 1048-1664 limits assumed": "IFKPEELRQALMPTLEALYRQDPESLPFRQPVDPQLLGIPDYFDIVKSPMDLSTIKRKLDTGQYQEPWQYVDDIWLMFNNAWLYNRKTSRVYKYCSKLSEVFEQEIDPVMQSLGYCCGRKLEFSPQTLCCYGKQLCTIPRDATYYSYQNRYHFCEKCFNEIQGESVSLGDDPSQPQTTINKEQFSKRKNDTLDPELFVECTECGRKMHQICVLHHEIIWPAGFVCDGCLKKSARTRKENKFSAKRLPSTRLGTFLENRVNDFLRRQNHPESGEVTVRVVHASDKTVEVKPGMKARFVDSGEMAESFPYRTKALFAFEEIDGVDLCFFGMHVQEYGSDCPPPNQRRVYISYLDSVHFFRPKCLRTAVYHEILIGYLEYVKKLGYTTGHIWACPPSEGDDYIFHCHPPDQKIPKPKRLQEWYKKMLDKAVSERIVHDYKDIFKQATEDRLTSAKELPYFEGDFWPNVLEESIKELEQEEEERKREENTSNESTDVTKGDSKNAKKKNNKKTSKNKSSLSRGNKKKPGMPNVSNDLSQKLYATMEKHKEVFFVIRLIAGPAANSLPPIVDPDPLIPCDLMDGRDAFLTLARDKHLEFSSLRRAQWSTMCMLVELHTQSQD"}, "source": "patent US20220144812A1", "about": "“QUINOLINE DERIVATIVES AND THEIR USE FOR THE TREATMENT OF CANCER” (Epizyme, Inc., priority 2019, published 2022)", "key": {"[1]": {"test_system": "H3K18Ac in HB-CLS-2 cells", "experiment": "H3K18AC in-cell western (ICW) assay", "description": "The following example describes methods and materials relating to an H3K18AC in-cell western assay. IC50 values (micromolar (μM)) are summarized in Table 1, Table 2, and Table 3 under the column labeled: “CREBBP ICW IC50 (micromolar).”\nMATERIALS: HB-CLS-2 cell line, DMEM: Ham's F12 medium (1:1 mixture), penicillin-streptomycin, heat inactivated fetal bovine serum, D-PBS, Odyssey blocking buffer, 800CW goat anti-rabbit IgG (H+L) antibody, Licor Odyssey CLx Infrared Scanner, H3K18Ac rabbit monoclonal antibody. DRAQS fluorescent probe solution (5 mM), and 100% methanol were commercially available. HB-CLS-2 adherent cells were maintained in complete growth medium (DMEM: Ham's F12 supplemented with 10% v/v heat inactivated fetal bovine serum) and cultured at 37° C. under 5% CO2.\nMETHOD: Cell Treatment, ICW for detection of H3K18Ac and DNA content. HB-CLS-2 cells were seeded in assay medium (DMEM: Ham's F12 supplemented with 10% v/v heat inactivated fetal bovine serum and 1% Penicillin/Streptomycin) at a concentration of 80,000 cells per mL in a Poly-D-Lysine coated 384-well culture plates at 50 μL per well. Plates were incubated at room temperature for 30 minutes and then incubated at 37° C., 5% CO2 for additional 16-24 hours. Compounds and DMSO normalization were then added directly to the plates using a D300 Digital Dispenser and returned to the incubator at 37° C., 5% CO2 for 2 hrs. After the incubation, the contents of the plates were discarded into the appropriate waste stream and blotted on laboratory tissue to remove residual liquid. 90 μL per well of 100% ice cold methanol was added to the plates and incubated at room temperature for 15 minutes. Then methanol was then discarded into the appropriate waste stream and the plates again blotted on laboratory tissue to remove residual liquid. Plates were transferred to a Biotek 405 plate washer and washed 3 times with 100 μL per well of wash buffer (1X PBS containing 0.1% Triton X-100 (v/v)). Next, 50 μL per well of Odyssey blocking buffer with 0.1% Tween 20 (v/v) was added to each plate and incubated for 1 hour at room temperature. Blocking buffer was removed and 20 μL of primary antibody were added (α-H3K18Ac diluted 1:800 in Odyssey buffer with 0.1% Tween 20 (v/v)) and plates were incubated overnight (16 hours) at 4° C. Plates were washed 5 times with 100 μL per well of wash buffer. Next 20 μL per well of secondary antibody was added (1:400 800CW goat anti-rabbit IgG (H+L) antibody, 1:2000 DRAQ5 in Odyssey buffer with 0.1% Tween 20 (v/v)) and incubated for 1 hour at room temperature. The plates were washed 3 times with 100 μL per well wash buffer then 3 times with 100 μL per well of water. Plates were allowed to dry at room temperature then imaged on the Licor Odyssey CLx machine which measured integrated intensity at 700 nm and 800 nm wavelengths. Both 700 and 800 channels were scanned."}, "647V cells": {"test_system": "647V cells", "experiment": "High throughput proliferation (HTP) assay", "settings": "read-out: CREBBP HTP IC50 (micromolar)", "description": "The following example describes methods and materials relating to a high throughput proliferation (HTP) assay. IC50 values (micromolar) are summarized in Table 1, Table 2, and Table 3 under the column labeled: “CREBBP HTP IC50 (micromolar).”\nMATERIALS: 647V cell line, Dulbecco's MEM, penicillin-streptomycin, heat inactivated fetal bovine serum, D-PBS, and CellTiter-Glo were commercially available.\n647V adherent cells were maintained in complete growth medium (Dulbecco's MEM supplemented with 15% v/v heat inactivated fetal bovine serum) and cultured at 37° C. under 5% CO2.\nMETHOD: Measurement of the effect of compound in High Throughput Proliferation (HTP) assays was performed as follows: Exponentially growing 647V cells were plated, in triplicate, in 384-well plates at the appropriate cell density in a final volume of 50 μl. Cells were incubated in the presence of increasing concentrations of compound. Viable cell number was determined at day 7 by addition of 35 μl CellTiter-Glo to each well of the plate, incubated in the dark for 30 minutes, and read on a PerkinElmer EnVision instrument to enumerate the number of cells."}, "CREBBP (1084-1701)": {"target": "CREBBP (1084-1701) (Homo sapiens, UniProt Q92793)", "experiment": "Biochemical assay for CREBBP (1084-1701), SAMDI", "description": "The following example describes materials and methods relating to a biochemical assay for CREBBP (1084-1701). IC50 values (micromolar (μM)) are summarized in Table 1, Table 2, and Table 3 under the column labeled: “CREBBP Biochemistry IC50 (micromolar).”\nMATERIALS: Reagents 1M Tris pH 8.0, Tween 20 10%, DTT, bovine serum gelatin (BSG) 2%, Peptide #233 (biotin-H3 11-25, K14R, K23R), Acetyl-CoA, CREBBP (1084-1701), formic acid (100%), and sodium bicarbonate were commercially available.\nMETHODS: The effect of compounds was measured in the following biochemical assay using CREBBP (1084-1701). Enzyme mix 30 μL per well was added using a Multi-drop to wells of prepared Compound Stock plate. The enzyme was incubated in the Compound Stock plate for 30 minutes at room temperature. Substrate mix, 20 μL per well, was added to Compound Stock plate using a Multi-drop. The plate was covered and incubate 30 minutes at room temperature. The reaction was stopped with addition of 5 μL per well of 5% formic acid using a Multi-drop. The plate was Incubated for 30 minutes at room temperature. The reaction mixture was neutralized with addition of 5 μL per well of 10% sodium bicarbonate using a Multi-drop. The plate was Incubated for 35 minutes at room temperature. The reaction mixture was Transferred 2.5 μL per well to a SAMDI biochip. The plate was Incubated for 60 minutes at room temperature. The samples were washed, dried, and matrix applied to SAMDI biochip. The SAMDI biochip was then read on the mass spectrometer."}, "EP300 (P300(1048-1664))": {"target": "EP300 (P300(1048-1664)) (Homo sapiens, UniProt Q09472)", "experiment": "Biochemical assay for EP300, SAMDI", "settings": "read-out: EP300 Biochemistry IC50 (micromolar)", "description": "The following example describes materials and methods relating to a biochemical assay for EP300. IC50 values (micromolar (μM)) are summarized in Table 1, Table 2, and Table 3 under the column labeled: “EP300 Biochemistry IC50 (micromolar).”"}, "[2]": {"settings": "read-out: CREBBP ICW IC50 (micromolar)"}, "[3]": {"settings": "read-out: CREBBP Biochemistry IC50 (micromolar), SAMDI"}, "[4]": {"settings": "read-out: CREBBP ICW IC50, HB-CLS-2 cells"}, "[5]": {"settings": "read-out: CREBBP Biochemistry IC50, SAMDI"}}, "note": "Where two headings read alike, the source gives them in different places."}
{"compound": "CCn1ncc(CN(C)C(=O)c2nc(-c3cc(C)cc(NCCO)c3)nc3ccc(Cl)cc23)c1C", "values": [{"measurement": "IC50", "setting": "[1]; [2]", "result": 0.929, "unit": "µM"}, {"measurement": "IC50", "setting": "647V cells", "result": 0.998, "unit": "µM"}, {"measurement": "IC50", "setting": "CREBBP (1084-1701); [3]", "result": 0.198, "unit": "µM"}, {"measurement": "IC50", "setting": "EP300 (P300(1048-1664)); EP300, SAMDI", "result": 0.457, "unit": "µM"}]}
{"compound": "CCn1ncc(CN(C)C(=O)c2nc(-c3cc(C(=O)NC)n(C)n3)nc3ccc(Cl)cc23)c1C", "note": "[Compound 18]", "values": [{"measurement": "IC50", "setting": "[1]; [2]", "result": 0.21, "unit": "µM"}, {"measurement": "IC50", "setting": "647V cells", "result": 0.18, "unit": "µM"}, {"measurement": "IC50", "setting": "CREBBP (1084-1701); [3]", "result": 0.1, "unit": "µM"}, {"measurement": "IC50", "setting": "EP300 (P300(1048-1664)); EP300, SAMDI", "result": 0.0022, "unit": "µM"}]}
{"compound": "CCn1ncc(CN(C)C(=O)c2nc(-c3cc4c(cc3C)CC(=O)N4)nc3ccc(Cl)cc23)c1C", "values": [{"measurement": "IC50", "setting": "[1]; [2]", "result": 0.544, "unit": "µM"}, {"measurement": "IC50", "setting": "647V cells", "result": 1.01, "unit": "µM"}, {"measurement": "IC50", "setting": "CREBBP (1084-1701); [3]", "result": 0.22, "unit": "µM"}, {"measurement": "IC50", "setting": "EP300 (P300(1048-1664)); EP300, SAMDI", "result": 0.466, "unit": "µM"}]}
{"compound": "CCc1cc(-c2nc(C(=O)N(C)Cc3cnn(CC)c3C)c3cc(Cl)ccc3n2)ccc1OCCCNC", "values": [{"measurement": "IC50", "setting": "[1]; [2]", "result": 0.47, "unit": "µM"}, {"measurement": "IC50", "setting": "647V cells", "result": 0.15, "unit": "µM"}, {"measurement": "IC50", "setting": "CREBBP (1084-1701); [3]", "result": 0.022, "unit": "µM"}, {"measurement": "IC50", "setting": "EP300 (P300(1048-1664)); EP300, SAMDI", "result": 0.087, "unit": "µM"}]}
{"compound": "CCn1ncc(CN(C)C(=O)c2nc(-c3cc4c(cc3C)CCN4)nc3ccc(Cl)cc23)c1C", "values": [{"measurement": "IC50", "setting": "[1]; [2]", "result": 11.8, "unit": "µM"}, {"measurement": "IC50", "setting": "647V cells", "result": 6.73, "unit": "µM"}, {"measurement": "IC50", "setting": "CREBBP (1084-1701); [3]", "result": 10, "unit": "µM"}, {"measurement": "IC50", "setting": "EP300 (P300(1048-1664)); EP300, SAMDI", "result": 4.08, "unit": "µM"}]}
{"compound": "CCn1ncc(CN(C)C(=O)c2nc(-c3cc(C)cc(NCCNC)c3)nc3ccc(Cl)cc23)c1C", "values": [{"measurement": "IC50", "setting": "[1]; [2]", "result": 0.075, "unit": "µM"}, {"measurement": "IC50", "setting": "647V cells", "result": 0.033, "unit": "µM"}, {"measurement": "IC50", "setting": "CREBBP (1084-1701); [3]", "result": 0.016, "unit": "µM"}, {"measurement": "IC50", "setting": "EP300 (P300(1048-1664)); EP300, SAMDI", "result": 0.0087, "unit": "µM"}]}
{"compound": "CCn1ncc(CN(C)C(=O)c2nc(-c3ccc(OCCNC)c(OC)c3)nc3ccc(Cl)cc23)c1C", "values": [{"measurement": "IC50", "setting": "[1]; [2]", "result": 1.6, "unit": "µM"}, {"measurement": "IC50", "setting": "647V cells", "result": 0.89, "unit": "µM"}, {"measurement": "IC50", "setting": "CREBBP (1084-1701); [3]", "result": 0.91, "unit": "µM"}, {"measurement": "IC50", "setting": "EP300 (P300(1048-1664)); EP300, SAMDI", "result": 1.2, "unit": "µM"}]}
{"compound": "CCn1ncc(CN(C)C(=O)c2nc(-c3ccccc3Br)nc3ccc(Cl)cc23)c1C", "values": [{"measurement": "IC50", "setting": "[1]; [4]", "result": 0.37, "unit": "µM"}, {"measurement": "IC50", "setting": "CREBBP (1084-1701); [5]", "result": 0.007, "unit": "µM"}]}
{"compound": "CCn1ncc(CN(C)C(=O)c2cc(-c3ccc(OCCNC)c(Cl)c3)nc3ccc(C(C)(C)O)cc23)c1C", "values": [{"measurement": "IC50", "setting": "647V cells", "result": 7.12, "unit": "µM"}, {"measurement": "IC50", "setting": "CREBBP (1084-1701); [3]", "result": 34.5, "unit": "µM"}, {"measurement": "IC50", "setting": "EP300 (P300(1048-1664)); EP300, SAMDI", "result": 8.75, "unit": "µM"}]}
{"compound": "CCn1ncc(CN(C)C(=O)c2nc(-c3cc4c(NC)n[nH]c4c(F)c3C)nc3ccc(Cl)cc23)c1C", "values": [{"measurement": "IC50", "setting": "CREBBP (1084-1701); read-out: CREBBP Biochemistry IC50 (micromolar), Peptide #233, Acetyl-CoA, SAMDI mass spectrometry", "result": 50, "unit": "µM"}, {"measurement": "IC50", "setting": "EP300 (P300(1048-1664)); P300(1048-1664), Peptide #233, Ac-CoA, SAMDI mass spectrometry", "result": 50, "unit": "µM"}]}
{"compound": "CCc1cccc(-c2nc(C(=O)N(C)Cc3cnn(CC)c3C)c3cc(Cl)ccc3n2)c1", "values": [{"measurement": "IC50", "setting": "[1]; [4]", "result": 4, "unit": "µM"}, {"measurement": "IC50", "setting": "CREBBP (1084-1701); [5]", "result": 0.51, "unit": "µM"}]}
